Values joined by “and” are separate entries in the source; they are usually repeats but may differ in a detail not shown here. Identical values can stand only once. Only a part is listed here, and it is no random draw. Active and inactive are the calls of the source. Cut-off read from the data, not from the text of the source: active = inhibition above about 22%; inactive = the rest.
experiment: IEC-6 cell viability reduction – luminescence, cytotoxicity control for KLF5 inhibitor project, primary screen (AID 1825); conditions: IEC-6 cytotoxicity, at 5 µM, stronger effect = higher value;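 note: 0% = plate median of test compound wells and 100% = cytotoxic reference compound wells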

SMILES | inhibition
CC(C)(C)C(=O)NC(Sc1ccncn1)C(Cl)(Cl)Cl (stereo not given) | inactive: 1.2%
O=[N+]([O-])c1ncn(CCn2ncnc2[N+](=O)[O-])n1 | inactive: -0.2%
O=[N+]([O-])c1cccc(NC2=NCC(CBr)S2)c1 (stereo not given) | inactive: -2.2%
O=C(O)CNc1ccc([As](=O)(O)O)cc1 | inactive: -2.05%
O=C(Nc1cc([As](=O)(O)O)ccc1O)c1ccccc1 | inactive: -6.75%
Nc1ccc([As](=O)(O)c2ccc(N)cc2)cc1 | inactive: -3.6%
C[N+]1=C2C=CC=CC=C2SC12C([N+](=O)[O-])=CC([N+](=O)[O-])=C[C-]2[N+](=O)[O-] (stereo not given) | active: 54.6%
CCN(/C(=N/P(=O)(N1CCOCC1)N1CCOCC1)N1CCOCC1)c1ccc(OC)cc1 | inactive: 5%
CC(C)=N/N=C(\N)N[N+](=O)[O-] | inactive: -0.6%
CN(C)C(=O)OCCc1n(C)cc[n+]1C | inactive: 4.6%
CC1CCN(C(=O)Oc2c(Cl)cc(Cl)c3cccnc23)CC1 | inactive: 11.2%
COc1ccc(C2=NCC(CBr)S2)cc1 (stereo not given) | inactive: -3.8%
CC(=O)N1C2C3N(C(C)=O)C1C1N(C(C)=O)C(C(N1C(C)=O)N3C(C)=O)N2C(C)=O | inactive: 0.2%
O=[N+]([O-])c1cccc2n[nH]nc12 | inactive: -0.8%
Cc1ccc(NP(=O)(Oc2ccccc2)Oc2ccccc2)nc1 | inactive: -2%
O=[N+]([O-])c1cc([N+](=O)[O-])c(CCNc2ccccc2)c([N+](=O)[O-])c1 | inactive: 3%
CCc1nc2c(n1)c1c(non1O)c1c2no[n+]1[O-] | inactive: 6.9%
Nc1cc(N)c2nonc2c1[N+](=O)[O-] | inactive: -7.6%
CC(C)CC(=O)NC(Sc1ccc(Cl)cc1)C(Cl)(Cl)Cl (stereo not given) | inactive: -5.6%
Oc1ccccc1CNc1ccccn1 | inactive: -14.1%
O=C(NC(Sc1ccncn1)C(Cl)(Cl)Cl)c1ccccc1 (stereo not given) | inactive: 2.4%
Cc1c2non([O-])c-2c(C)[n+](=O)[n+]1[O-] | inactive: -4.7%

SMILES | inhibition
NC(=O)c1cc([N+](=O)[O-])cc([N+](=O)[O-])c1N | inactive: 3.7%
Cc1ccc(N/C(=N/P(=O)(N2CCOCC2)N2CCOCC2)N2CCOCC2)cc1 | inactive: -3.9%
COc1ccccc1OP(=O)(Nc1ccc(C)cn1)Oc1ccccc1OC | inactive: 10.2%
Cc1ccc(OP(=O)(Nc2nccs2)Oc2ccc(C)cc2)cc1 | inactive: -4%
CN1CCCC(OC(=O)C(c2ccccc2)c2ccccc2)C1 (stereo not given) | inactive: -4.2%
Clc1ccc(Cl)c(NC2=NCC(CBr)S2)c1 (stereo not given) | inactive: -3.2%
O=[N+]([O-])c1cc([N+](=O)[O-])c(CCN2CCOCC2)c([N+](=O)[O-])c1 | inactive: -8.6%
CCN(N=Nc1nonc1N)c1nonc1N | inactive: 0.8%
Nc1cccc2ccc([As](=O)(O)O)cc12 | inactive: -19%
CC(=O)Nc1ccc([As](=O)(O)O)cc1 | inactive: 1.45%
O=C(O)c1ccccc1[As](=O)(O)O | inactive: -3.6%
O=P(Nc1nc2ccc(Cl)cc2s1)(c1ccccc1)c1ccccc1 | inactive: 3.1%
Cc1cc(SC(NC(=O)c2ccc(F)cc2)C(Cl)(Cl)Cl)ncn1 (stereo not given) | inactive: 2.1%
CCOP(=O)(Nc1ccccc1)OCC | inactive: -5.8% and inactive: -1.6%
Cc1ccc(NP(=O)(Oc2ccccc2F)Oc2ccccc2F)nc1 | inactive: 5%
COC(=O)c1cc2c(s1)N=C(c1ccccc1)N(C)P2(=O)N1CCOCC1 (stereo not given) | inactive: -6.1%
CC(=O)NC(SC(=S)N(CC(C)C)CC(C)C)C(Cl)(Cl)Cl (stereo not given) | inactive: 6%
O=C(OC1CN2CCC1CC2)c1ccccc1 (stereo not given) | inactive: -2.9%
CCC(=O)N1C2C3N(C(=O)CC)C1C1N(C(=O)CC)C(C(N1C(=O)CC)N3C(=O)CC)N2C(=O)CC | inactive: 3%
Cc1ccccc1OP(=O)(Nc1ccccn1)Oc1ccccc1C | inactive: -0.9%
O=c1c2cc([N+](=O)[O-])ccc2[nH]c2c([N+](=O)[O-])cc([N+](=O)[O-])cc12 | inactive: -0.6%
CN(C)C(=O)Oc1noc2ccccc12 | inactive: -5.4%

SMILES | inhibition
O=C(NC1CCS(=O)(=O)C1)NP(=S)(Oc1ccccc1)Oc1ccccc1 (stereo not given) | inactive: 4.7%
CCNC(=S)/N=C(\N)N[N+](=O)[O-] | inactive: -5.9%
c1ccc(-c2nn[nH]n2)c(-c2nn[nH]n2)c1 | inactive: -10.3%
CCOC(=O)NC(Sc1ccccc1)C(Cl)(Cl)Cl (stereo not given) | inactive: -5.9%
Cc1ccc(NP(=O)(Oc2cccc(C)c2)Oc2cccc(C)c2)nc1 | inactive: 3.7%
CC(=O)c1ccc(N2CC2c2ccncc2)cc1 (stereo not given) | inactive: -1.5%
CC(=O)Nc1ccc([As](=O)(O)O)c(O)c1 | inactive: 6.4%
CC(=O)Nc1ccc(Oc2c([N+](=O)[O-])cc([N+](=O)[O-])cc2[N+](=O)[O-])cc1 | inactive: 2.3%
O=P1(Nc2nc3ccc(Cl)cc3s2)COc2ccccc2O1 (stereo not given) | inactive: 7.3%
CCOc1ccc(C2=NCC(CBr)S2)cc1 (stereo not given) | inactive: 2.2%
CC(C)(C)C(=O)NC(Sc1ccccc1)C(Cl)(Cl)Cl (stereo not given) | inactive: 5.6%
O=P(Nc1nccs1)(c1ccccc1)c1ccccc1 | inactive: 7.3%
CC(C)C(=O)NC(Sc1ccccc1)C(Cl)(Cl)Cl (stereo not given) | inactive: 2.9%
c1nnnn1CCn1cnnn1 | inactive: -4.9%
O=[N+]([O-])c1ncn(CCn2cnc([N+](=O)[O-])n2)n1 | inactive: -3.7%
CC(=O)NC(SC(=S)N(C)C)C(Cl)(Cl)Cl (stereo not given) | inactive: 0.1%
O=[N+]([O-])c1ccc(O)c(/C=N/Nc2ccc([N+](=O)[O-])cc2[N+](=O)[O-])c1 | inactive: -13.9%
O=[As](O)(c1ccccc1)c1ccc(O)cc1 | inactive: -2.6%
C(Cc1nn[nH]n1)Cc1nn[nH]n1 | inactive: -6.8%
Nc1ccc([As](=O)(O)c2ccc([N+](=O)[O-])cc2)cc1 | inactive: 4.2%
O=C(OC1CN2CCC1CC2)c1cccc(Cl)c1 (stereo not given) | inactive: 1%
